US11124489B2, “EPAC antagonists” (priority 2017, dated 2021)

Key:
[1] = biological target: EPAC1 (Homo sapiens (Human), UniProt O95398); details: read-out: Rap 1b-bGDP EPAC1 IC50; apparent IC50, EPAC1 GEF activity, 20 μM cAMP
[2] = biological target: EPAC2 (Mus musculus (Mouse), UniProt Q9EQZ6)

Substance: N-(3,5-Bis(trifluoromethyl)phenyl)-2-(5-(4-chlorophenyl)isoxazol-3-yl)-2-oxoacetohydrazonoyl cyanide [Compound 24]
- IC50 [1]: 5.6 µM and < 8 µM
- Relative GEF activity, EPAC2-mediated Rap1b-bGDP exchange ([2]; in the presence of 20 μM cAMP, figure): Dose-dependent inhibition
- IC50 ([2]; read-out: Rap1b-bGDP EPAC2 IC50, apparent IC50, EPAC2 GEF activity, 20 μM cAMP): 7 ± 0.9 µM

Values joined by “and” are separate entries in the source; they are usually repeats but may differ in a detail not shown here. Equal values may be shown once.
